Measured values taken from BindingDB's records for doi:10.1021/jm021012t (F. Hoffmann-La Roche, 2003).

Assay: Inhibition of P-glycoprotein using calcein-AM assay transfected in porcine PBCEC

COC(=O)C1C(C)=NC(C)=C(C(=O)OCCN(C)Cc2ccccc2)C1c1cccc([N+](=O)[O-])c1 (stereo unspecified) [Cardene]
IC50: 950 nM
